Assay: experimental logP
Format: physicochemical

For CC(C)C(=O)N1CCC(NC(=O)Nc2ccc(C(F)(F)F)c(F)c2)CC1 [Compound 20], the “Exp/ logP” value was 4.40.

— patent US11123311B2, “Methods of treating mental disorders” (The Regents of the University of California, priority 2016, dated 2021)
